Laboratory results as given in PubChem BioAssay AID2803 (The Scripps Research Institute Molecular Screening Center, 2010).
This is a selection; strong and weak results do not stand in their true shares. Some results for these compounds are left out of this collection, so the calls shown say nothing about other tests. Activity calls are given as the source filed them. Rule as the data show it: active = inhibition above about 43%; inactive = the rest.

By UniProt entry, the sequences of proteins in these tests, tags left out.
UniProt Q4J6C6, whole entry: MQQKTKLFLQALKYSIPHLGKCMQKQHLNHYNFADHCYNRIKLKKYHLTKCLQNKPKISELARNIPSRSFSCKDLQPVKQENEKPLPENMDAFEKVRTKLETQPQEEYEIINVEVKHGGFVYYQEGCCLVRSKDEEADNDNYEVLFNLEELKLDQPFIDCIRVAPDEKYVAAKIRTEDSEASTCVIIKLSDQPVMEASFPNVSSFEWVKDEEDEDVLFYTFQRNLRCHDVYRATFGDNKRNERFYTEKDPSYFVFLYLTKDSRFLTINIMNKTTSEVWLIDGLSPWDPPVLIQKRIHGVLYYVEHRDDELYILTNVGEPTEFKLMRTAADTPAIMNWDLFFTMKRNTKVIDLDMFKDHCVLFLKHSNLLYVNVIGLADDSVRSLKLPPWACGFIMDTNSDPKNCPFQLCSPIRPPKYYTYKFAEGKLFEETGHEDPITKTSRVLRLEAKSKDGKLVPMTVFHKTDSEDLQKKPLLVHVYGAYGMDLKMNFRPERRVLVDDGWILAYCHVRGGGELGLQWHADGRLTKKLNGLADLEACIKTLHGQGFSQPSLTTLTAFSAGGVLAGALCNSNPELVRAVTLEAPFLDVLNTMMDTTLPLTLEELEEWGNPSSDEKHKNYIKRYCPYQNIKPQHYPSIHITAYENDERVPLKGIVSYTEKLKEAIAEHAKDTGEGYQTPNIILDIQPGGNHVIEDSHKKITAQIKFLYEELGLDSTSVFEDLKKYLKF

target: Prolyl endopeptidase-like (Homo sapiens) (UniProt Q4J6C6); test: human PREPL enzyme inhibitors, confirmation, biochemical, fluorescence polarization (AID 2803); conditions: recombinant PREPL, fluorescence polarization activity probe; at 5.96 µM; active compounds read high;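 also: 0% = protein with DMSO and 100% = wells lacking protein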

**Q.** `CCN(CC)CC(C)C(C)OC(=O)C(O)(c1ccccc1)c1ccccc1` (stereo unspecified) was tested. Which inhibition did it give?
**A.** inactive: 38.2%
